One data set addresses Cannabinoid receptor 1 (Homo sapiens, UniProt P21554). Description: Allosteric modulation of CB1 receptor (unknown origin) assessed as inhibition of CP55940-induced [35S]GTPgammaS binding. The class given is functional. In general terms: GTPγS resists hydrolysis and so accumulates on activated G proteins.
The nature of data set [1]: Clearance in Sprague-Dawley rat. As to conditions: in vivo. It is filed as ADME.

By UniProt entry, the sequences of proteins in these tests, tags left out.
UniProt P21554, whole entry: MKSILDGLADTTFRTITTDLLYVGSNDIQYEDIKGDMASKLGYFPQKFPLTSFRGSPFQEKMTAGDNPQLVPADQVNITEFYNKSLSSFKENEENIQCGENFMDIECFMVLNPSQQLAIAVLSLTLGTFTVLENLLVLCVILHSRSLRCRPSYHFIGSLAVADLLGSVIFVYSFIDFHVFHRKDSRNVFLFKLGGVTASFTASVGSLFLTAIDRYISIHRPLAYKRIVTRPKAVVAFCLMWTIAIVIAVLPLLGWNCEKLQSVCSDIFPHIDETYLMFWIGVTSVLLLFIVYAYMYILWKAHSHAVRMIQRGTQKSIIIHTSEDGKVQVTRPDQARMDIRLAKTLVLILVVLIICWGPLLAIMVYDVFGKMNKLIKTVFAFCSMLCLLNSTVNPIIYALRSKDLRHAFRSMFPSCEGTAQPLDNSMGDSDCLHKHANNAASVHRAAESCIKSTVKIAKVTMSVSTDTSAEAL

As a reminder, the IC50 is the concentration that inhibits the measured activity by half.

Molecules are shown by their SMILES. Where only a bound is given, the exact number is not on record here.

As for `O=C(Nc1ccc(Cl)cc1)Nc1cccc(-c2cccc(N3CCCC3)n2)c1`, the IC50 at Cannabinoid receptor 1 turned out to be 102 nM.
Turning to `O=C(Nc1ccc(Cl)cc1)Nc1cccc(-c2ccc(F)cc2)c1`, the CL in data set [1] was less than 4.6 µL/min/mg.

The record behind these values is ChEMBL document CHEMBL4325918, “Allosteric CB1 Receptor Modulators for the Treatment of CB1 Related Diseases and Conditions” (ACS Med Chem Lett, 2018).
